Reference: patent US8580787B2, “Compositions and methods for reducing activation of alpha-1 receptors” (Eye Therapies LLC, priority 2008, dated 2013)

Columns and labels:
[1] = brimonidine at 0.033%, left eye, 4 hrs after previous treatment
[2] = 0.03% brimonidine nasal spray repeated for one week, n of 1
[3] = FIG. 2
[4] = Example 4: red eye study, cumulative red scores, brimonidine vs VISINE Original; settings: brimonidine at 0.05% as printed (1 of 15)
[5] = Example 2: Lasik prophylaxis, postoperative hyperemia, hemorrhage and flap dislocation

Brc1c(N=C2NCCN2)ccc2nccnc12.O=C(O)C(O)C(O)C(=O)O [brimonidine, 5-bromo-6-(2-imidazolidinylideneamino)quinoxaline L-tartrate]
rebound hyperemia after third application [1]: without rebound hyperemia
rebound on repeated use [2]: without rebound
concentration giving rebound virtually identical to tetrahydrozaline, naphazoline and oxymetazoline [3]: ≥ 0.10%
Rebound hyperemia after one dose (share of patients) [4]: 6.6%
Flap dislocation rate ([5]; Naphcon-A, brimonidine 0.02% preoperatively, initial trial): under 1%
adverse cardiovascular events ([5]; brimonidine 0.02%): No adverse cardiovascular events
